Measured values taken from patent publication US20240199626A1, “COMPOUNDS WITH IMPROVED CARDIAC SAFETY FOR THE TREATMENT OF CANCER AND NEURODEGENERATIVE DISORDERS” (priority 2021, published 2024).

System: K-562-T315I cells (K-562 cells expressing BCR-ABL^T315I)
Assay: Cell viability / growth inhibition (AlamarBlue), K-562-T315I
Format: cell-based
Settings: Homo sapiens, K562, read-out: Cell Inhibition IC50 K-562-T315I

Q: Which IC50 does the source give for `Cc1nc(Nc2ncc(C(=O)Nc3c(C)cccc3Cl)s2)cc(N2CCN(CCO)CC2)n1` [Dasatinib] here?
A: Its IC50 is > 10 µM.
